Assay results from article PMC4633044, “Quorum Sensing Peptides Selectively Penetrate the Blood-Brain Barrier” (PLoS ONE, 2015).

Assays:
[1] = system: mouse brain capillaries / parenchyma; conditions: in vivo, iv
[2] = system: blood-brain barrier
[3] = mouse, in vivo, iv
[4] = system: mouse brain (blood-brain barrier); conditions: in vivo
[5] = system: mouse brain (blood-brain barrier); conditions: in vivo; remark: listed apart in the source

## Bovine Serum Albumin [BSA, reference compound]
[1]
  Capillary fraction: 19.4%
  Parenchymal fraction: 80.6%
[2]
  BBB influx classification: very low influx
[3]
  Tissue distribution (in words): clear liver distribution
[4]
  kout: 0.01 ± 0.03 min⁻¹
[5]
  Brain distribution volume, V0: 14.59 ± 1.23 µL/g
[5]; iv
  Kin: 0.12 ± 0.08 µL/g/min
  Kin (text): 0.12 µL/g/min
